# Laboratory results taken from patent publication US4329353A (priority 1981, dated 1982).
# System: norepinephrine-induced mortality
# Test: norepinephrine (NOR) test in rats (combined APO-TRY-NOR test)
# Conditions: Table 1; rat; s.c.; norepinephrine 1.25 mg/kg i.v. 120 min after compound
row,Compound,ED50 (NOR) [mg/kg]
1,N#CC1(c2ccc(F)cc2)CCC(N2CCC3(CC2)C(=O)NCN3c2ccccc2)CC1 (centres unmarked),10
2,CCOC(=O)C1(c2ccc(F)cc2)CCC(N2CCC3(CC2)C(=O)NCN3c2ccc(F)cc2)CC1 (centres unmarked),< 2.5
3,CCCCOC(=O)C1(c2ccc(F)cc2)CCC(N2CCC3(CC2)C(=O)NCN3c2ccc(F)cc2)CC1 (centres unmarked),1.25
4,COC1(c2ccc(F)cc2)CCC(N2CCC3(CC2)C(=O)NCN3c2ccc(F)cc2)CC1 (centres unmarked),2.5
5,CCOC(=O)C1(c2ccc(F)cc2)CCC(N2CCC3(CC2)C(=O)NCN3c2ccccc2)CC1 (centres unmarked),10
6,CC(=O)C1(c2ccc(F)cc2)CCC(N2CCC3(CC2)C(=O)NCN3c2ccc(F)cc2)CC1 (centres unmarked),10
7,CCCOC(=O)C1(c2ccc(F)cc2)CCC(N2CCC3(CC2)C(=O)NCN3c2ccc(F)cc2)CC1 (centres unmarked),1.25

# Same assay, conditions: Table 2; rat; s.c.; norepinephrine 1.25 mg/kg i.v. 120 min after compound
row,Compound,ED50 -(NOR) [mg/kg]
1,N#CCCN1CN(c2ccc(F)cc2)C2(CCN(C3CCC(C#N)(c4ccc(F)cc4)CC3)CC2)C1=O (centres unmarked),5
2,"CNC(=O)CN1CN(c2ccc(F)cc2)C2(CCN(C3CCC(C#N)(c4ccc(F)cc4)CC3)CC2)C1=O (single isomer, unassigned)",≤ 2.5
3,CC(C)N1CN(c2ccc(F)cc2)C2(CCN(C3CCC(C#N)(c4ccc(F)cc4)CC3)CC2)C1=O (centres unmarked),10
4,"COC(=O)C(C)CN1CN(c2ccc(F)cc2)C2(CCN(C3CCC(C#N)(c4ccc(F)cc4)CC3)CC2)C1=O (single isomer, unassigned)",10
5,"N#CC1(c2ccc(F)cc2)CCC(N2CCC3(CC2)C(=O)N(CC(N)=O)CN3c2ccc(F)cc2)CC1 (single isomer, unassigned)",1.25
6,"CN(C)C(=O)CN1CN(c2ccc(F)cc2)C2(CCN(C3CCC(C#N)(c4ccc(F)cc4)CC3)CC2)C1=O (single isomer, unassigned)",5
7,N#CC1(c2ccc(F)cc2)CCC(N2CCC3(CC2)C(=O)N(Cc2ccccc2)CN3c2ccc(F)cc2)CC1 (centres unmarked),10
